Melting point values, as collected for the OPERA models

Data: OPERA 2.9 data sets, kmansouri/OPERA on GitHub.

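The OPERA project collected these measurements from public sources as training and test data for property models. One number stands for a compound and property, with no spread given. How each value was measured is not recorded, so precision varies. Where a salt, mixture or single isomer is drawn, the source does not say that exactly this form was tested. Some entries may be limits or estimates that an upstream database listed as plain numbers.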

Melting points are in °C. "–" marks a cell with nothing listed here. The databases behind each value are named after "via".

| structure (SMILES) | name | melting point (°C) | via |
|---|---|---|---|
| COc1ccccc1-c1n[nH]c(=S)n1N | 4-Amino-5-(2-methoxy-phenyl)-4H-[1,2,4]triazole-3-thiol | 215 | OCHEM |
| CN(C)c1ccc(CCC(=O)O)cc1 | 3-[4-(DIMETHYLAMINO)PHENYL]PROPANOIC ACID | 106 | OCHEM |
| CN(C)C(=O)c1ccc(O)cc1 | 4-hydroxy-N,N-dimethylbenzamide | 157 | OCHEM |
| CS(=O)(=O)Nc1ccc2nn(C3CCCC3)nc2c1 | N-(2-Cyclopentyl-2H-benzotriazol-5-yl)methanesulfonamide | 126 | OCHEM |
| NNC(=O)C(=O)NCc1ccco1 | N-[(Furan-2-yl)methyl]-2-hydrazinyl-2-oxoacetamide | 159 | OCHEM |
| Cc1ccc(S(=O)(=O)NCCC(=O)O)cc1 | 3-(Toluene-4-sulfonylamino)-propionic acid | 149 | OCHEM |
| O=C(CBr)c1cc2cc(Cl)ccc2o1 | 2-bromo-1-(5-chloro-1-benzofuran-2-yl)ethanone | 169 | OCHEM |
| C/C=C/C(=O)[C@@H]1[C@@H](C)C=CCC1(C)C | – | 10.78 | eChemPortal |
| NS(=O)(=O)c1cc(C(=O)O)ccc1Br | 4-bromo-3-sulfamoylbenzoic acid | 276 | OCHEM |
| Cc1cccc([N+](=O)[O-])c1I | 2-iodo-1-methyl-3-nitrobenzene | 68 | OCHEM |
| Cc1noc(N)c1C(=O)O | 5-amino-3-methylisoxazole-4-carboxylic acid | 152 | OCHEM |
| OCc1cc(C(O)CNCCCCCCOCCCCc2ccccc2)ccc1O (stereo not drawn) | Salmeterol | 76 | PubChem |
| CCO[Si](CCCNC=O)(OCC)OCC | N-[3-(Triethoxysilyl)propyl]formamide | -74 | eChemPortal |
| Clc1ccc(Oc2ccccc2Cl)cc1 | 2,4'-Dichlorodiphenyl ether | 31 | QSARDB |
| COc1cc(C(=O)O)ccc1OCC(C)C | 4-isobutoxy-3-methoxybenzoic acid | 146 | OCHEM |
| CC(=O)c1cc(OC(F)(F)F)ccc1O | 1-[2-Hydroxy-5-(trifluoromethoxy)phenyl]ethan-1-one | 29.5 | OCHEM |
| Nc1nc(CCl)nc(Nc2ccccc2)n1 | 6-(Chloromethyl)-N~2~-phenyl-1,3,5-triazine-2,4-diamine | 140 | OCHEM |
| NNc1nccc2sccc12 | 4-Hydrazinylthieno[3,2-c]pyridine | 192 | OCHEM |
| Cc1nc2ccccc2n1N | 2-Methyl-1H-benzimidazol-1-amine | 146 | OCHEM |
| CO/N=C(/C(=O)OC)c1ccccc1CCl | Methyl (2E)-(2-(chloromethyl)phenyl)(methoxyimino)acetate | 56.8 | eChemPortal |
| OCc1cc(F)cc(CO)c1O | 4-Fluoro-2,6-bis(hydroxymethyl)phenol | 120 | OCHEM |
| CCCCCCCCCCCCC(CCCCCCCCCC)C(=O)O (stereo not drawn) | Tetradecanoic acid, 2-decyl- | 46.5 | eChemPortal |
| O=C=Nc1ccc(OP(=S)(Oc2ccc(N=C=O)cc2)Oc2ccc(N=C=O)cc2)cc1 | Tris(4-isocyanatophenyl) thiophosphate | 86.9 | eChemPortal |
| O=[N+]([O-])c1cc(C(F)(F)F)ccc1I | 1-Iodo-2-nitro-4-(trifluoromethyl)benzene | 35 | OCHEM |
| COc1ccc(C(=O)C(Cl)c2ccc(OC)cc2)cc1 (stereo not drawn) | 2-Chloro-1,2-bis(4-methoxyphenyl)ethan-1-one | 70 | OCHEM |
| Cc1ccc(C=CC=O)cc1 | p-Methylcinnamaldehyde | 41.5 | PubChem |
| Cl.Cl.O=C(OCCN1CCCCC1)C(c1ccccc1)N1CCCCC1 (stereo not drawn) | – | 213 | OCHEM |
| CCCCC(=O)N(Cc1ccc(-c2ccccc2-c2nn[nH]n2)cc1)[C@H](C(=O)OCc1ccccc1)C(C)C | Valsartan benzyl ester | 175 | eChemPortal |
| CN1CC[C@@H](NC(=O)Nc2ccc(C#N)cc2)C[C@@H]1c1nc2ccccc2[nH]1 | Glasdegib | 214 | PubChem |
| C[C@]12CCC(=O)C=C1CC[C@@H]1[C@@H]2CC[C@@]2(C)[C@H]1CC[C@@]2(O)C#CCO | 17beta-Hydroxy-17-(3-hydroxy-1-propynyl)androst-4-ene-3-one | 202.6 | eChemPortal |
| Nc1nnc(-c2ccc(F)cc2)o1 | 5-(4-fluorophenyl)-1,3,4-oxadiazol-2-amine | 247 | OCHEM |
| O=C1CCC=CCCC=CCCC1 | 4,8-Cyclododecadien-1-one | -31.5 | eChemPortal |
| N#CCC(=O)Nc1ccccc1Cl | N-(2-chlorophenyl)-2-cyanoacetamide | 125 | OCHEM |
| CC(C)c1ccccn1 | 2-(Propan-2-yl)pyridine | -141 | OCHEM |
| COc1cc(C=O)ccc1OCC(=O)N1CCOCC1 | 3-Methoxy-4-(2-morpholin-4-yl-2-oxo-ethoxy)-benzaldehyde | 99 | OCHEM |
| NS(=O)(=O)c1cc2c(s1)C(O)CCS2=O (stereo not drawn) | – | 190 | OCHEM |
| Clc1ccccc1-c1cccc2c1-c1ccccc1C2(c1ccccc1)c1ccccc1 | 4-(2-Chlorophenyl)-9,9-diphenyl-9H-fluorene | 213.4 | eChemPortal |
| CCCC(=O)C1=C(O)CC(C2CCCSC2)CC1=O (stereo not drawn) | 2-Butanoyl-3-hydroxy-5-(thian-3-yl)cyclohex-2-en-1-one | 65.55 | eChemPortal |
| Oc1cn(-c2ccccc2)nn1 | 1-phenyl-1H-1,2,3-triazol-4-ol | 161 | OCHEM |
| CCNc1cc(C#N)c(N)c2c1C(=O)c1ccccc1C2=O | – | 236.7 | eChemPortal |
| COc1ccc(-c2cc(C(=O)O)c3ccccc3n2)cc1OC | 2-(3,4-Dimethoxyphenyl)quinoline-4-carboxylic acid | 235 | OCHEM |
| CCOC(=O)C(F)F | Ethyl difluoroacetate | -46 | eChemPortal |

Excerpt, the opening 6 entries:

{"smiles": "COc1ccccc1-c1n[nH]c(=S)n1N", "name": "4-Amino-5-(2-methoxy-phenyl)-4H-[1,2,4]triazole-3-thiol", "melting point (°C)": "215", "via": "OCHEM"}
{"smiles": "CN(C)c1ccc(CCC(=O)O)cc1", "name": "3-[4-(DIMETHYLAMINO)PHENYL]PROPANOIC ACID", "melting point (°C)": "106", "via": "OCHEM"}
{"smiles": "CN(C)C(=O)c1ccc(O)cc1", "name": "4-hydroxy-N,N-dimethylbenzamide", "melting point (°C)": "157", "via": "OCHEM"}
{"smiles": "CS(=O)(=O)Nc1ccc2nn(C3CCCC3)nc2c1", "name": "N-(2-Cyclopentyl-2H-benzotriazol-5-yl)methanesulfonamide", "melting point (°C)": "126", "via": "OCHEM"}
{"smiles": "NNC(=O)C(=O)NCc1ccco1", "name": "N-[(Furan-2-yl)methyl]-2-hydrazinyl-2-oxoacetamide", "melting point (°C)": "159", "via": "OCHEM"}
{"smiles": "Cc1ccc(S(=O)(=O)NCCC(=O)O)cc1", "name": "3-(Toluene-4-sulfonylamino)-propionic acid", "melting point (°C)": "149", "via": "OCHEM"}